AlphaSeq binding of Ab-95 light chain variants to a spike HR2 peptide

Reference: Engelhart et al. 2022, doi:10.1038/s41597-022-01779-4. File: FLAb, binding data.

Antigen: PDVDLGDISGINAS, a 14-residue peptide of the SARS-CoV-2 spike HR2 region.

Ab-95 is the parent antibody, in scFv form: VH, then three GGGGS repeats, then VL. The heavy chain is unchanged in all variants.
VH: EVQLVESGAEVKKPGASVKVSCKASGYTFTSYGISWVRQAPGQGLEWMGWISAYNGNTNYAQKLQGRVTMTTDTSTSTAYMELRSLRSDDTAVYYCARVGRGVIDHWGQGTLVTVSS
VL: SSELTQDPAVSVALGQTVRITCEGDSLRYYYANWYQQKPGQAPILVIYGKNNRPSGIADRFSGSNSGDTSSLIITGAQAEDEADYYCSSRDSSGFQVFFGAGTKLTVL

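The starting antibody came from a phage panning campaign against this peptide. The library (AAYL52) carries one to three amino acid substitutions per variant, with no insertions or deletions. The scFvs were displayed on barcoded MATa yeast, the peptide on MATalpha yeast. The frequency of each diploid, read from paired DNA barcodes, reflects how well the two displayed proteins bind. Scores were corrected for input abundance and mapped to Kd with protein pairs of known affinity run in the same pool. Each pool was mated in three replicate cultures.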

Substitutions are numbered in sequence along the VL above, starting at 1 (not Kabat).
Only single mutants are listed, position by position.
The read-out is the apparent dissociation constant on a log10 scale (nM): the lower, the stronger.
Replicates are averaged; those with no signal do not enter the mean.
An entry "nd" has no value in the source: the pair was not observed among the diploids in any replicate. This suggests poor binding but is not conclusive.

changes,mean log10 Kd (nM),detected,signal with controls
Y29I,3.24,3/3,0/9
Y29R,3.07,3/3,4/9
Y29H,1.62,3/3,1/9
Y30C,2.51,3/3,2/9
Y30K,0.97,3/3,2/9
Y30W,2.28,3/3,1/9
Y30G,0.89,3/3,0/9
Y30A,0.70,3/3,8/9
Y30N,1.38,3/3,2/9
Y30I,2.53,3/3,6/9
Y30F,3.18,3/3,2/9
Y30T,0.73,3/3,6/9
Y30L,2.09,3/3,1/9
Y30E,1.49,3/3,4/9
Y30D,2.25,3/3,2/9
Y30Q,nd,0/3,0/9
Y30S,0.66,3/3,7/9
Y30V,1.57,3/3,3/9
Y30M,1.03,3/3,2/9
Y30R,1.93,3/3,5/9
Y30H,0.77,3/3,7/9
Y30P,2.03,3/3,3/9
Y31Q,1.70,3/3,6/9
Y31S,1.06,3/3,1/9
Y31P,0.95,3/3,5/9
Y31W,2.73,3/3,1/9
Y31G,1.84,3/3,4/9
Y31R,2.31,3/3,2/9
Y31K,2.45,3/3,0/9
Y31L,2.33,3/3,3/9
Y31M,1.97,3/3,3/9
Y31C,2.08,3/3,2/9
Y31T,1.89,3/3,4/9
Y31E,0.99,3/3,2/9
Y31A,1.14,3/3,3/9
Y31N,0.84,3/3,3/9
Y31H,1.68,3/3,0/9
Y31I,3.09,3/3,1/9
Y31D,0.34,3/3,2/9
Y31F,2.60,3/3,1/9
Y31V,1.44,3/3,5/9
A32K,3.50,2/3,2/9
A32R,3.48,3/3,2/9
A32D,3.93,1/3,4/9
A32N,2.92,3/3,0/9
A32S,2.31,3/3,2/9
A32Y,nd,0/3,1/9
A32E,4.19,3/3,3/9
A32W,2.60,3/3,3/9
A32P,1.72,3/3,5/9
A32H,3.75,3/3,1/9
A32L,2.55,3/3,2/9
A32T,1.75,3/3,5/9
A32Q,2.89,3/3,2/9
A32F,4.83,1/3,2/9
A32C,1.83,3/3,2/9
A32G,2.67,3/3,2/9
A32M,2.33,3/3,0/9
A32V,2.44,3/3,0/9
N33K,nd,0/3,0/9
N33R,4.38,3/3,4/9
N33A,3.99,3/3,4/9
N33G,4.35,2/3,4/9
N33F,3.35,2/3,3/9
N33C,2.36,2/3,2/9
N33H,nd,0/3,3/9
N33L,4.95,3/3,7/9
N33E,2.66,3/3,4/9
N33Y,3.27,3/3,5/9
N33W,4.78,1/3,4/9
N33P,4.64,2/3,5/9
N33I,nd,0/3,6/9
N33M,3.08,2/3,3/9
N33V,3.42,1/3,2/9
N33T,2.85,3/3,4/9
N33S,1.66,3/3,5/9
N33D,3.35,3/3,1/9

From the list, the first 5 with no signal in any replicate:

changes	mean log10 Kd (nM)	detected	signal with controls
Y30Q	nd	0/3	0/9
A32Y	nd	0/3	1/9
N33K	nd	0/3	0/9
N33H	nd	0/3	3/9
N33I	nd	0/3	6/9

Empty control strains, which show no peptide, gave a signal in 28% of pairings with library AAYL52; the median was 3.91 and 95% of these signals were weaker than 2.90. No background was subtracted. Also given: how often the same scFv was detected with the empty control strains.